The results in this text go back to publication PMC12921483 (Frontiers in Pharmacology, 2026).

The test has as its system HeLa. As to the kind of experiment: CCK-8 antiproliferative assay, HeLa. It is filed as cell-based. (Tetrazolium dyes change colour on reduction, which living cells bring about.)

The structures appear in SMILES notation.

As to `O=C(/C=C/c1ccc(N2CCCC2)cc1)c1cccc(OC(F)(F)F)c1` [Compound B6], the “anti-cervical cancer activity in words” value is “completely inactive”.

On to `O=C(/C=C/c1ccc(N2CCCC2)cc1)c1ccc(OC(F)(F)F)cc1` [Compound B7], for which the “anti-cervical cancer activity in words” value was “completely inactive”.
